According to paper PMC5028280 (Neuropharmacology, 2016):

System: male ICR mice
Assay: FOB, cannabinoid receptor antagonism of 3 mg/kg JWH-018 effects
Type: in vivo, mouse
Conditions: 3 mg/kg JWH-018 i.v. alone, or co-administration of 3 mg/kg rimonabant i.p.

With Cc1c(C(=O)NN2CCCCC2)nn(-c2ccc(Cl)cc2Cl)c1-c1ccc(Cl)cc1 [rimonabant] the “Muscle tone in FOB antagonism study” value was “completely reversed”.
